Measurements taken from US20140329863A1 (priority 2011, published 2014).

Tested on: N2a-cl3 cells

Dextran
Potency Cell Viability, mg/L: >10 (mg/L)
